Values of other authors as cited in the PKSmart pharmacokinetics tables (Seal et al. 2025).

What was measured:
[1] = Lombardo, Berellini, Obach 2018, Drug Metab Dispos 46:1466, doi 10.1124/dmd.118.082966; details: human; for fraction unbound: plasma
[2] = Lombardo et al. 2013, J Clin Pharmacol 53:178, doi 10.1177/0091270012440282; details: for fraction unbound: plasma

SMILES | fraction unbound ([2]; monkey) | fraction unbound [1] | other results
Cc1cn([C@H]2C[C@H](N=[N+]=[N-])[C@@H](CO)O2)c(=O)[nH]c1=O | 0.707 |  | clearance ([1]; in vivo, iv): 25 mL/min/kg
CC(C)NCC(O)COc1ccc(COCCOC(C)C)cc1 (configuration not stated) | 0.75 |  | 
CC(C)NCC(O)COc1cccc2[nH]ccc12 (configuration not stated) |  |  | fraction unbound ([2]; dog): 0.556
C[C@@H](CN1CC(=O)NC(=O)C1)N1CC(=O)NC(=O)C1 |  | 1 | 
NC(=O)c1ncn([C@@H]2O[C@H](CO)[C@@H](O)[C@H]2O)n1 |  | 1 | 
Cn1c(=O)c2[nH]cnc2n(C)c1=O |  |  | Vd ([2]; rat, in vivo, iv): 0.55 L/kg
